## Antibody variant affinities, Ab-14 light chain, assay B

From the AlphaSeq antibody data of Li et al. 2023 (doi:10.1038/s41467-023-39022-2), copy in the FLAb collection.

Target peptide (SARS-CoV-2 spike, HR2 region): PDVDLGDISGINAS

The variants keep the heavy chain, the linker and the frameworks of Ab-14 (scFv order VH, three GGGGS repeats, VL).
VH: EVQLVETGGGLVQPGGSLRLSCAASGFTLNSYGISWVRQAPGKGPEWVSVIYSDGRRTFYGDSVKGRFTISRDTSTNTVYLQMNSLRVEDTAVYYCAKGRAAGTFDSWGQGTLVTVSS
VL: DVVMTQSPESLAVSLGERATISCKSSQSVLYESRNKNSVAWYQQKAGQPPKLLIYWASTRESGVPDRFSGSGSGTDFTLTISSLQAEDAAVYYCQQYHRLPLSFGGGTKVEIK

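The starting antibody came from a phage panning campaign against this peptide. These sequences belong to a second round, designed from the earlier measurements on random variants of the parent. Several design methods are mixed in this list. The assay is AlphaSeq: two haploid yeast populations carry antibody and antigen on their surface. Binding brings cells together so that they mate, and sequencing counts the barcode pairs among the diploids. A regression on co-assayed BCL2-family reference pairs converts the normalised counts of each replicate to an apparent Kd. Mating was done six times.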

The parent's light chain CDRs are KSSQSVLYESRNKNSVA, WASTRES, QQYHRLPLS; each variant's own CDRs replace them letter for letter. Variants here have more than six changes. Each Kd is an estimate from the mating assay, the geometric mean of the replicates in which the pair was seen; lower is stronger. An entry "nd" has no value in the source: the pair was not observed among the diploids in any replicate. This suggests poor binding but is not conclusive.

The variant MISQSFLIGSRAKNSVA | QTSTRES | QQYDRLPLM gave 410 pM (6 of 6 replicates). For MVNGIMDHLSKNTNNVA | ETSTRNS | QQYDRLPLS, the assay gave 4.2 nM (6 of 6 replicates). With TLWDSIQGGDWAKKNVA | DEQVRMV | QQYYRLPLS the result was 5.1 nM (6 of 6 replicates). With MISSLTMYGSRNKNSVA | DLSTRGS | QQYHRLPLS the result was 5.1 nM (6 of 6 replicates). For KITQIFFPYGNSWHSVA | NANTLAA | QQYYMLPLM, the assay gave 2.2 nM (6 of 6 replicates). The variant KMSQSDLMEMRNANSVA | NASTREM | QQYHRLPLS showed 1.1 nM (6 of 6 replicates). The variant HISQSVGMTSRNKNSVA | ENSTRES | QQYDRLPLS showed 92 nM (5 of 6 replicates). With KLSGLMASSKFAKNNVA | ENNTREY | QQYDRLPLS the result was 520 nM (3 of 6 replicates).

The variant KWMQSVDQESRNKNSVA | HASTRCQ | QQYHRLPLS showed 4.1 nM (6 of 6 replicates). For KISMTYRFESQASNSIA | EMTTREE | QSYHRLPLS, the assay gave 65 nM (6 of 6 replicates). With NLSGMVEEIETRQKNIA | EVEFRCM | QQYSRLPLS the result was 67 nM (6 of 6 replicates). The variant HFAYPLQSGYVSKQNVA | NASTVMT | QHYNRLPLS gave 20 nM (6 of 6 replicates). With MFSQMTGLGMKASNSVA | QASTRFE | QQYVRLPLI the result was 6.4 nM (6 of 6 replicates). The variant TISALYNQATGMRNNVA | NNQTRED | QQYKRLPLS gave 44 nM (4 of 6 replicates). The variant MMTTGLLGENKNSSNIA | SQNIKTA | QQYQRLPLT gave 9.0 nM (6 of 6 replicates). For SLFFNDDQLQEESNNIA | HASLRSV | QQYMHLPLV, the assay gave 4.9 nM (6 of 6 replicates).

For TLYGLSNSMSKNKNNVA | EMTTREY | QQYDRLPLV, the assay gave 3.0 nM (6 of 6 replicates). For WWSMSVMQESRNKNSVA | SASTREL | QQYHRLPLS, the assay gave nd (0 of 6 replicates). The variant TLTGAMHTQMHNTNSVA | DLTTRGN | QQYHRLPLS gave 3.2 nM (6 of 6 replicates). The variant KLPQSQEYESRWKNSVA | EASTREL | QQYHRLPLS gave 2.2 nM (6 of 6 replicates). The variant KLSQVQEYEMHNKDNVA | DLTTRGS | QDYHRLPLS gave 2.4 nM (6 of 6 replicates). The variant KLVNFMNRGTHHTSNIA | DAQNRCD | QQYARLPLD gave 14 nM (6 of 6 replicates). The variant KLFDRTREGIANQNNVA | EDNDVSV | QQYSILPLT showed nd (0 of 6 replicates). For HMSALTMLGMRQRNSVA | QMTTREN | QQYDRLPLA, the assay gave 3.6 nM (6 of 6 replicates).

With MISDLTMYGSRNINSVA | DLSTRGS | QQYHRLPLS the result was 1.3 nM (6 of 6 replicates). With MISQLYNMGSFAINSVA | QASERNE | QQYDRLPLM the result was 14 nM (6 of 6 replicates). The variant KLYSVTGTEKINGNNVA | EMETRER | QQYNRLPLS showed 5.5 nM (6 of 6 replicates). The variant MISQLYNMGQFAINSVA | QASTRNE | QQYHRLPLM showed 2.7 nM (6 of 6 replicates). The variant NISYHQGEPTNSVNNVA | QTSLRAH | QQYHHLPLC showed 2.9 nM (6 of 6 replicates). For TISQSMYWESRNKNSVA | QTSTREE | QDYDRLPLS, the assay gave 58 nM (6 of 6 replicates). For TISQLYNMGQFAINSVA | QASQRNE | QQYDRLPLM, the assay gave 6.4 nM (6 of 6 replicates). The variant QLTWRAFNGDSVMNNVA | DRVHAQY | QQYSRLPFT showed 5.3 nM (6 of 6 replicates).

For NVGGEDPGQWHMKDSIA | GSSLRAE | QQYWRLPLL, the assay gave 1.9 nM (6 of 6 replicates). For KLDLTNGEEDKKGQNIA | EASTAGT | QSYWRLPLS, the assay gave 54 nM (6 of 6 replicates). The variant KLSQLVNFFGHAINSVA | EMETREN | QQYDRLPLS gave 16 nM (6 of 6 replicates). The variant KLSMTTEMELKHRNSVA | ELVTRMS | QQYNRLPLS gave 11 nM (6 of 6 replicates). The variant KITATMRFEQKNSNNIA | EVTTRSK | QQYYRLPLS gave 1.3 nM (6 of 6 replicates). The variant MMSMGYLGGMRAKNNVA | QEETRES | QQYHRLPFI gave 18 nM (6 of 6 replicates). With MISQLMNMGQFAINSVA | QASERHN | QQYDRLPLM the result was 25 nM (3 of 6 replicates). The variant MMSQVTGLGQRHRNNVA | QTSMRET | QQYDRLPLI gave 27 nM (6 of 6 replicates).

The variant ALQMETLGQKQKQNNIA | NQDMRTA | QQYYMLPLV gave 1.0 nM (6 of 6 replicates). The variant MLLQTTMYGERNRNSVA | HASTRED | QQYHRLPLI gave 10 nM (6 of 6 replicates). For QVQYAPGESLRHTQSIA | DVNIKDM | QQYSRLPLS, the assay gave 140 nM (5 of 6 replicates). The variant HITYGMYVSGRHTSNIA | QAEERAK | QQYDRLPLI showed 4.1 nM (6 of 6 replicates). The variant MISDLTMYGSRLKNSVA | DLSTRGS | QQYHRLPLS showed 4.5 nM (6 of 6 replicates). With TLSQSMDMTSRNKNSVA | DLSTREN | QQYHRLPLS the result was 40 nM (5 of 6 replicates). The variant KITATMRFEQKNSNNIA | EVTTRTK | QQYVRLPLA showed nd (0 of 6 replicates). The variant KLVGVDDNDNNPSHAIA | DVSTLDN | QQYHRLPLD showed 11 nM (5 of 6 replicates).

In the paper, a design with two or fewer of six values counts as a poor binder. The range of this assay differs from that of the first round, and the authors advise against merging the two. Background: pairings of all light chain designs with three empty control strains gave a value in 4% of cases (median 430 nM, 5th percentile 38 nM). Values in that range, when seen in few replicates, are hard to tell from nonspecific mating.